Measurements reported in patent US7402314B2, “In vivo activation of tumor-specific cytotoxic T cells” (The Scripps Research Institute, priority 1995, dated 2008).

Key:
Experiment in all cases: Cytotoxicity assay, killing of tumors (Table 7)
Format in all cases: cell-based, human
Hep-G2 = conditions: Hep-G2, Hepatoma, A2 +
MDA.MB435 = conditions: MDA.MB435, Breast, A2 −
BT549 = conditions: BT549, Breast, A2 +
SW480 = conditions: SW480, Colon, A2 +
U2-OS = conditions: Osteosarcoma, A2 +
CASKI = conditions: Cervix, A2 +
MALME-3M = conditions: Melanoma, A2 +
MCF-7 = conditions: MCF-7, Breast, A2 +
SAOS.175 = conditions: SAOS.175, Osteosarcoma, A2 +
SKMEL-5 = conditions: SKMEL-5, Melanoma, A2 +
LG-2 = conditions: LG-2, EBV-trans., A2 +
SV80 = conditions: SV80, Fibroblast, A2 +
NCI.H1355 = conditions: NCI.H1355, Lung, A2 +
U87G = conditions: Glioblastoma, A2 +
MDA.M8231 = conditions: MDA.M8231, Breast, A2 +
OVCAR-5 = conditions: OVCAR-5, Ovarian, A2 +
ST486 = conditions: ST486, Lymphoma, A2 +
T98G = conditions: Glioblastoma, A2 +
JY = conditions: Lymphoma, A2 +
[1] = + CYT (γ-IFN plus TNF-α, 24 hours)

## CC[C@H](C)[C@H](NC(=O)[C@@H](N)CCCCN)C(=O)N[C@@H](Cc1ccccc1)C(=O)NCC(=O)N[C@@H](CO)C(=O)N[C@@H](CC(C)C)C(=O)N[C@@H](C)C(=O)N[C@@H](Cc1ccccc1)C(=O)N[C@@H](CC(C)C)C(=O)O [Peptide H3]
Hep-G2; [1]
  Killing of Tumors Expressing Her-2/neu (percent specific lysis): 20%
Hep-G2; no cytokines
  Killing of Tumors Expressing Her-2/neu (percent specific lysis): 4%
MDA.MB435; [1]
  Killing of Tumors Expressing Her-2/neu (percent specific lysis): 2%
MDA.MB435; no cytokines
  Killing of Tumors Expressing Her-2/neu (percent specific lysis): 3%
BT549; [1]
  Killing of Tumors Expressing Her-2/neu (percent specific lysis): 40%
BT549; no cytokines
  Killing of Tumors Expressing Her-2/neu (percent specific lysis): 2%
SW480; [1]
  Killing of Tumors Expressing Her-2/neu (percent specific lysis): 50%
SW480; no cytokines
  Killing of Tumors Expressing Her-2/neu (percent specific lysis): 6%
U2-OS; [1]
  Killing of Tumors Expressing Her-2/neu (percent specific lysis): 91%
U2-OS; no cytokines
  Killing of Tumors Expressing Her-2/neu (percent specific lysis): 32%
CASKI; [1]
  Killing of Tumors Expressing Her-2/neu (percent specific lysis): 30%
CASKI; no cytokines
  Killing of Tumors Expressing Her-2/neu (percent specific lysis): 13%
MALME-3M; [1]
  Killing of Tumors Expressing Her-2/neu (percent specific lysis): 57%
MALME-3M; no cytokines
  Killing of Tumors Expressing Her-2/neu (percent specific lysis): 28%
MCF-7; [1]
  Killing of Tumors Expressing Her-2/neu (percent specific lysis): 54%
MCF-7; no cytokines
  Killing of Tumors Expressing Her-2/neu (percent specific lysis): 7%
SAOS.175; [1]
  Killing of Tumors Expressing Her-2/neu (percent specific lysis): 33%
SAOS.175; no cytokines
  Killing of Tumors Expressing Her-2/neu (percent specific lysis): 27%
SKMEL-5; [1]
  Killing of Tumors Expressing Her-2/neu (percent specific lysis): 38%
SKMEL-5; no cytokines
  Killing of Tumors Expressing Her-2/neu (percent specific lysis): 6%
LG-2; [1]
  Killing of Tumors Expressing Her-2/neu (percent specific lysis): 4%
LG-2; no cytokines
  Killing of Tumors Expressing Her-2/neu (percent specific lysis): 2%
SV80; [1]
  Killing of Tumors Expressing Her-2/neu (percent specific lysis): 8%
SV80; no cytokines
  Killing of Tumors Expressing Her-2/neu (percent specific lysis): 4%
NCI.H1355; [1]
  Killing of Tumors Expressing Her-2/neu (percent specific lysis): 38%
NCI.H1355; no cytokines
  Killing of Tumors Expressing Her-2/neu (percent specific lysis): 11%
U87G; [1]
  Killing of Tumors Expressing Her-2/neu (percent specific lysis): 1%
U87G; no cytokines
  Killing of Tumors Expressing Her-2/neu (percent specific lysis): 2%
MDA.M8231; [1]
  Killing of Tumors Expressing Her-2/neu (percent specific lysis): 85%
MDA.M8231; no cytokines
  Killing of Tumors Expressing Her-2/neu (percent specific lysis): 34%
OVCAR-5; [1]
  Killing of Tumors Expressing Her-2/neu (percent specific lysis): 29%
OVCAR-5; no cytokines
  Killing of Tumors Expressing Her-2/neu (percent specific lysis): 25%
ST486; [1]
  Killing of Tumors Expressing Her-2/neu (percent specific lysis): 1%
ST486; no cytokines
  Killing of Tumors Expressing Her-2/neu (percent specific lysis): 1%
T98G; [1]
  Killing of Tumors Expressing Her-2/neu (percent specific lysis): 99%
T98G; no cytokines
  Killing of Tumors Expressing Her-2/neu (percent specific lysis): 20%
JY; [1]
  Killing of Tumors Expressing Her-2/neu (percent specific lysis): 1%
JY; no cytokines
  Killing of Tumors Expressing Her-2/neu (percent specific lysis): 2%
